Only a part is listed here, and it is no random draw. The source made the active and inactive calls. Cut-off read from the data, not from the text of the source: active = maximum fold increase above about 1.5; inconclusive = no clear call, values can overlap the other calls; inactive = below that; tested in PC3 cells.
Assay: compounds boosting herpes simplex virus growth – fold increase, host cell viability (AID 1956)
Settings: HSV replication augmentation in cells; at 3.125 µM, active compounds read high

Row | Compound | maximum fold increase
1 | O=P1(Nc2ncccn2)COc2ccccc2OC1 | inactive
2 | CN1CCCCC1COC(=O)C1(O)c2ccccc2CCc2ccccc21 (configuration not stated) | inactive
3 | COc1ccccc1OP(C)(=O)Nc1c(C)cccc1C (configuration not stated) | inactive
4 | O=P1(Nc2ccc(Br)cn2)COc2ccccc2OC1 | inactive
5 | Cc1ccc(OCC(=O)OC2CN3CCC2CC3)cc1 (configuration not stated) | inactive
6 | O=[As](O)(c1cccs1)c1cccs1 | inactive
7 | CP(=O)(Nc1ccc(SC(F)(F)F)cc1)Oc1ccccc1 (configuration not stated) | inactive
8 | CCCOc1ccc(NP(C)(=O)Oc2ccc(Cl)cc2)cc1 (configuration not stated) | inactive
9 | COc1cc(C2NCCC3(OCCO3)C2(C)C)cc(OC)c1OC.O=[N+]([O-])c1cc([N+](=O)[O-])c(O)c([N+](=O)[O-])c1 (configuration not stated) | inactive
10 | CC1CCC(C(C)C)C(OP(=O)(Nc2ccccn2)c2ccccc2)C1 (configuration not stated) | inactive
11 | Cc1nn(-c2ccccc2)c2c1P(=O)(N1CCOCC1)N(C)C(c1ccccc1)=N2 (configuration not stated) | inactive
12 | O=C(/C=C/c1ccccc1)OC1CN2CCC1CC2 (configuration not stated) | inactive
13 | CCOC(=O)C(CC)C1=NC(C)(C)Cc2ccccc21.O=[N+]([O-])c1cc([N+](=O)[O-])c(O)c([N+](=O)[O-])c1 (configuration not stated) | inactive
14 | O=[N+]([O-])c1cc([N+](=O)[O-])c(Nc2nnnn2CCO)c([N+](=O)[O-])c1 | inactive
15 | CN(C)C1(CNC(=O)c2ccc(S(C)(=O)=O)cc2)CCCCC1 | inactive
16 | CC1(CBr)Cn2c(nc3ccccc3c2=O)S1 (configuration not stated) | inactive
17 | Cc1nc2ccc3ccccc3c2s1.O=[N+]([O-])c1cc([N+](=O)[O-])c(O)c([N+](=O)[O-])c1 | inactive
18 | O=[As](O)(c1ccccc1Br)c1ccccc1Br | inactive
19 | CN(C(=O)Cc1ccc(Cl)c(Cl)c1)[C@@H]1CCCC[C@H]1N1CCCC1 | inactive
20 | CC(C)/C=N\N=C(\N)N[N+](=O)[O-] | inactive
21 | CN(CCCl)Cc1cc(Cl)c(NC2=NCCN2)c(Cl)c1 | inactive
22 | CCOP(=O)(Nc1ccc(C)cn1)OCC | inactive
23 | O=[N+]([O-])c1cc([N+](=O)[O-])c(-n2nnc3ccccc32)c([N+](=O)[O-])c1 | inactive
24 | O=P1(Nc2ccccn2)COc2ccccc2OC1 | inactive

Row | Compound | maximum fold increase
25 | CC(C)(C)C(=O)NC(Sc1ncccn1)C(Cl)(Cl)Cl (configuration not stated) | inactive
26 | Clc1n[nH]nc1-c1nn[nH][15n]1 | inactive
27 | CCCOP(=S)(Nc1nc(N)cc(=O)[nH]1)OCCC | inactive
28 | Cc1ccc(C)c(NP(C)(=O)Oc2ccccc2)c1 (configuration not stated) | inactive
29 | Cc1ccc(NCCc2c([N+](=O)[O-])cc([N+](=O)[O-])cc2[N+](=O)[O-])cc1 | inactive
30 | CP(=O)(Nc1cccc(Br)c1)Oc1ccccc1 (configuration not stated) | inactive
31 | Cc1cc(C)cc(OP(C)(=O)Nc2ccccn2)c1 (configuration not stated) | inactive
32 | CCOP(=O)(Nc1cccc2ccccc12)OCC | inactive
33 | COc1ccccc1OP(C)(=O)Nc1cccc(Br)c1 (configuration not stated) | inactive
34 | COc1cc(C(=O)NCC2(N3CCOCC3)CCCCC2)cc(Cl)c1OC(C)C | inactive
35 | O=[As](O)(O)c1cccnc1 | inactive
36 | O=C(OC1CN2CCC1CC2)c1ccc(Cl)cc1 (configuration not stated) | inactive
37 | CCOC(=O)c1ccc(NP(C)(=O)Oc2cc(C)cc(C)c2)cc1 (configuration not stated) | inactive
38 | Cc1cc(C)cc(OP(C)(=O)Nc2ccc(C)cc2C)c1 (configuration not stated) | inactive
39 | O=[As](O)(c1cccc(O)c1)c1cccc(O)c1 | inactive
40 | Cc1cccc(OCC(=O)OC2CN3CCC2CC3)c1 (configuration not stated) | inactive
41 | NC(=O)Nc1ccc([As](=O)(O)O)cc1 | inactive
42 | CN(C(=O)Cc1ccc(Cl)c(Cl)c1)[C@H]1CC[C@@]2(CCCO2)C[C@@H]1N1CCCC1 | inactive
43 | CC1=NCCc2c1[nH]c1ccccc21.O=[N+]([O-])c1cc([N+](=O)[O-])c(O)c([N+](=O)[O-])c1 | inactive
44 | O=[N+]([O-])c1ccc2c(c1)nnn2O | inactive
45 | CCOP1(=S)c2c(C)nn(CCC#N)c2N=C(c2ccc(F)cc2)N1C (configuration not stated) | inactive
46 | CN(C(=O)Cc1ccccc1)[C@@H]1CC[C@]2(CCCO2)C[C@H]1N1CCCC1 | inactive
47 | CS(=O)(=O)c1cc([N+](=O)[O-])c2no[n+]([O-])c2c1 | inactive
48 | O=P(Nc1nccs1)(c1ccccc1)c1nc2ccccc2s1 (configuration not stated) | inactive

Row | Compound | maximum fold increase
49 | O=P(Nc1nccs1)(Oc1ccccc1)Oc1ccccc1 | inactive
50 | O=C(O)c1cccc(Nc2c([N+](=O)[O-])cc([N+](=O)[O-])cc2[N+](=O)[O-])c1 | inactive
51 | CCOP1(=S)c2c(C)nn(CCC#N)c2N=C(c2ccccc2F)N1C (configuration not stated) | inactive
52 | O=C(O)COc1ccc([As](=O)(O)O)cc1[N+](=O)[O-] | inactive
53 | Nc1ccccc1[As](=O)(O)c1ccccc1 | inactive
54 | CC(C)c1ccc(OP(=O)(Nc2ccccn2)Oc2ccccc2F)cc1 (configuration not stated) | inactive
55 | COc1ccccc1OP(C)(=O)Nc1ccc(C)cc1 (configuration not stated) | inactive
56 | ClCCSc1nnc(-c2cccnc2)o1 | inactive
57 | CCOC(=O)c1ccc(NP(C)(=O)Oc2ccccc2)cc1 (configuration not stated) | inactive
58 | Cc1cc(C)cc(OP(C)(N)=O)c1 (configuration not stated) | inactive
59 | O=[N+]([O-])c1cc([N+](=O)[O-])c(-c2ccn[nH]2)s1 | inactive
60 | CCN(CC)C(=S)SC(NC=O)C(Cl)(Cl)Cl (configuration not stated) | inactive
61 | CC(C)NC(=O)NP(=O)(Oc1ccccc1)Oc1ccccc1 | inactive
62 | COc1ccccc1OP(C)(=O)Nc1cc(Cl)ccc1C (configuration not stated) | inactive
63 | C[As](=O)(O)c1cccc(C(=O)O)c1 | inactive
64 | O=[As](O)(c1ccc(O)cc1)c1ccccc1O | inactive
65 | Cc1ccc2nc3c(c(C)c2c1)CC(C(Cl)Cl)S3 (configuration not stated) | inactive
66 | O=[N+]([O-])c1ccc2c(c1)C=Nc1ccccc1O2 | inactive
67 | Cc1cccc(C)c1OP(C)(N)=O (configuration not stated) | inactive
68 | CC(C)(C)c1ccc(OP(C)(=O)Nc2ccc(SC(F)(F)F)cc2)cc1 (configuration not stated) | inactive
69 | Cc1ccc(OP(=O)(Nc2ccc([N+](=O)[O-])cn2)Oc2ccc(C)cc2)cc1 | inactive
70 | COc1ccc(N/C(=N/P(=O)(N2CCOCC2)N2CCOCC2)N2CCOCC2)cc1 | inactive
71 | Cc1cc(=O)[nH]c(N[N+](=O)[O-])n1 | inactive
72 | CCN(CC)CCCOC(=O)C(O)(c1ccccc1)c1ccccc1 | inactive

Row | Compound | maximum fold increase
73 | O=C(OC1CN2CCC1CC2)C12CC3CC(CC(C3)C1)C2 (configuration not stated) | inactive
74 | Cc1c2c(nc3ccccc13)SC(C(Cl)Cl)C2 (configuration not stated) | inactive
75 | COc1cc(I)ccc1[As](=O)(O)O | inactive
76 | COc1ccc2nc(NP(=O)(c3ccccc3)c3ccccc3)sc2c1 | inactive
77 | CCOC(=O)c1ccc(NC(=O)C(C)(CCl)SC)cc1 (configuration not stated) | inactive
78 | CCOC(=O)c1ccc(NP(C)(=O)Oc2ccc(OC)cc2)cc1 (configuration not stated) | inactive
79 | CCOP(C)(=S)SCC(=O)NC(C)C(=O)O (configuration not stated) | inactive
80 | CP(=O)(Nc1ccccn1)Oc1ccc(Cl)cc1 (configuration not stated) | inactive
81 | CCC(C)N(CC(C)C)C(=S)SC(NC(C)=O)C(Cl)(Cl)Cl (configuration not stated) | inactive
82 | CP(=O)(Oc1ccccc1)OC(c1ccccc1)C(F)(F)F (configuration not stated) | inactive
83 | CP(=O)(Nc1ccc(SC(F)(F)F)cc1)Oc1ccc(Cl)cc1 (configuration not stated) | inactive
84 | Cc1cccc(C)c1OP(C)(=O)Nc1ccc(SC(F)(F)F)cc1 (configuration not stated) | inactive
85 | COP1(=S)c2c(C)nn(CCC#N)c2N=C(c2ccc(F)cc2)N1C (configuration not stated) | inactive
86 | Cc1cc(C)cc(OP(C)(=O)Nc2ccc(SC(F)(F)F)cc2)c1 (configuration not stated) | inactive
87 | CCc1ccc(OP(C)(=O)N2CCN(c3ccc([N+](=O)[O-])cc3)CC2)cc1 (configuration not stated) | inactive
88 | CP(=O)(NC(=O)Nc1ccccc1)Oc1ccccc1 (configuration not stated) | inactive
89 | CCOC(=O)Nc1cccc([As](=O)(O)O)c1 | inactive
90 | CP(=S)(Nn1cnnc1)Oc1ccccc1 (configuration not stated) | inactive
91 | O=[N+]([O-])c1ccc(Nc2ccc(Oc3ccc([N+](=O)[O-])cc3[N+](=O)[O-])cc2)c([N+](=O)[O-])c1 | inactive
92 | CP(=O)(Nc1ccccc1Br)Oc1ccccc1 (configuration not stated) | inactive
93 | COc1ccccc1OP(C)(=O)Nc1ccccc1 (configuration not stated) | inactive
94 | Cc1cc(SC(NC=O)C(Cl)(Cl)Cl)ncn1 (configuration not stated) | inactive
95 | O=P(Nc1ccccn1)(c1cccc2ccccc12)c1cccc2ccccc12 | inactive
96 | CCOC(=O)Nc1ccc([As](=O)(O)O)c(O)c1 | inactive

Row | Compound | maximum fold increase
97 | Cc1cc(SC(NC(=O)c2ccccc2)C(Cl)(Cl)Cl)nc(C(C)C)n1 (configuration not stated) | inactive: 1.05
98 | CC(C)(C)C(=O)NC(Sc1ccncn1)C(Cl)(Cl)Cl (configuration not stated) | inactive
99 | O=[N+]([O-])c1ncn(CCn2ncnc2[N+](=O)[O-])n1 | inactive
100 | O=[N+]([O-])c1cccc(NC2=NCC(CBr)S2)c1 (configuration not stated) | inactive
101 | O=C(O)CNc1ccc([As](=O)(O)O)cc1 | inactive
102 | O=C(Nc1cc([As](=O)(O)O)ccc1O)c1ccccc1 | inactive
103 | CCOC(=O)c1ccc(NP(C)(=O)Oc2ccc(Cl)cc2)cc1 (configuration not stated) | inactive
104 | CP(=O)(OC12CC3CC(CC(C3)C1)C2)OC12CC3CC(CC(C3)C1)C2 | inactive
105 | C[N+]1=C2C=CC=CC=C2SC12C([N+](=O)[O-])=CC([N+](=O)[O-])=C[C-]2[N+](=O)[O-] (configuration not stated) | inactive
106 | Nc1ccc([As](=O)(O)c2ccc(N)cc2)cc1 | inactive
107 | CC(C)(C)c1ccc(OP(C)(=O)O)cc1 | inactive
108 | COc1ccccc1OP(C)(=O)Nc1ccccc1Br (configuration not stated) | inactive
109 | CP(=O)(Nc1ccc(Cl)cc1)Oc1ccc(F)cc1 (configuration not stated) | inactive
110 | CCN(/C(=N/P(=O)(N1CCOCC1)N1CCOCC1)N1CCOCC1)c1ccc(OC)cc1 | inactive
111 | CN(C)C(=O)OCCc1n(C)cc[n+]1C | inactive
112 | CC(C)=N/N=C(\N)N[N+](=O)[O-] | inactive
113 | CN(C)C(=O)c1c([N+](=O)[O-])cc([N+](=O)[O-])cc1[N+](=O)[O-] | inactive
114 | CC1CCN(C(=O)Oc2c(Cl)cc(Cl)c3cccnc23)CC1 | inactive
115 | COc1ccc(OP(C)(=O)Nc2ccc(Br)cc2)cc1 (configuration not stated) | inactive
116 | COc1ccc(C2=NCC(CBr)S2)cc1 (configuration not stated) | inactive
117 | CCN(CC)CC(O)COC(=O)C(O)(c1ccccc1)C1CCCCC1 (configuration not stated) | inactive

From PubChem BioAssay AID1956 (SRMLSC, 2009)
